The term inhibition denotes the drop in the measured response relative to a control, in per cent.

This is an account of results in PubChem BioAssay AID1347056 (Sanford-Burnham Center for Chemical Genomics, 2019).

This is a selection; strong and weak results do not stand in their true shares. Activity calls are given as the source filed them.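 How the source made its calls: active means compounds whose plate-normalised and pattern-corrected inhibition of the luciferase reporter signal at the single screening dose is 50% or more; inactive means the rest.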

This assay can be described thus: TROY pathway blockers in reporter cells – Q293 LMP1-TROYcd cells, NF-kB luciferase, uHTS, primary screen (AID 1347056). As to conditions: 4 h, at 10 µM, hits give high values.
For `CC1=C2N=C(C=C3N=C(C(C)=C4[N-][C@@](C)([C@@H]5N=C1[C@](C)(CCC(=O)NC[C@@H](C)OP(=O)([O-])O[C@H]1[C@@H](O)[C@@H](n6cnc7cc(C)c(C)cc76)O[C@@H]1CO)[C@H]5CC(N)=O)[C@@](C)(CC(N)=O)[C@@H]4CCC(N)=O)[C@@](C)(CC(N)=O)[C@@H]3CCC(N)=O)C(C)(C)[C@@H]2CCC(N)=O.[C-]#N.[Co+3]`, the inhibition is inactive: -14.7%.
